Test results reported in the RepoRT retention time repository (doi:10.1016/j.scitotenv.2015.08.078).

Experiment: RP, Waters ACQUITY UPLC BEH C18, 100 × 2.1 mm, 1.7 µm, 0.3 mL/min, estimated dead time 0.73 min; A: water + 0.1% formic acid, pH 3; B: methanol + 0.1% formic acid, pH 3; gradient (min/%B) 0/10 14/90 16/90 18/10
Conditions: stereoisomer not certain

CCOP(=S)(OCC)Oc1ncn(-c2ccccc2)n1 [Triazophos]
LC retention time: 10.7 min
